# Reference: publication PMC9019507, “OAT10/SLC22A13 Acts as a Renal Urate Re-Absorber: Clinico-Genetic and Functional Analyses With Pharmacological Impacts” (Frontiers in Pharmacology, 2022)
# The chains behind the UniProt entries cited, without tags or fusion partners. Where a name states a change or a piece, a line headed by the entry shows the natural chain unless it says otherwise.
# UniProt Q96S37: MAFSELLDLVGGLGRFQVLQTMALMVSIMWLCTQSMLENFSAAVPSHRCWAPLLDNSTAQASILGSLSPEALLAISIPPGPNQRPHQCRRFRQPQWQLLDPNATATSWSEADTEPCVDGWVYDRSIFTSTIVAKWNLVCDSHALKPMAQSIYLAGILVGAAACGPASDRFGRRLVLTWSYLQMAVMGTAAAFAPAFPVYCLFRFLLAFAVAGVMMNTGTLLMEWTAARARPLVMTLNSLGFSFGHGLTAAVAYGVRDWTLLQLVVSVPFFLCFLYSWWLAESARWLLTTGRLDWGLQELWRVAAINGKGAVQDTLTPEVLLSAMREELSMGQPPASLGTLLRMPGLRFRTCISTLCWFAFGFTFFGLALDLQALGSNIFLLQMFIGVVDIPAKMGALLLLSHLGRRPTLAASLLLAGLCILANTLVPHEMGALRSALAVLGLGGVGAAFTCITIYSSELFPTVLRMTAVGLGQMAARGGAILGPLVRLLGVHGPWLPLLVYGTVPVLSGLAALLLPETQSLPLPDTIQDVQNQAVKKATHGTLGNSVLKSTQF
# Molecular target: T1, URAT1/SLC22A12 (Homo sapiens, UniProt Q96S37)
# T1 construct: full-length human URAT1 wild-type, EGFP-fused (pEGFP-C1)
# Experiment: cell-based
# Set-up: species or system 293A; inhibition of [8-14C]-urate uptake by URAT1-expressing 293A cells, concentration-response
# Excerpt: Data are expressed as the mean ± SD; n = 4.
smiles,measurement,value
"O=C(O)CSc1nnc(Br)n1-c1ccc(C2CC2)c2ccccc12 [LU, lesinurad]",IC50,14.6 µM
